Assay results: patent publication US6964966B2 (dated 2005)
≈ marks a conversion by molar mass, not a printed value.

Tested on: Fluoroquinolone Sensitive Strains
Assay: In-vitro antimicrobial test, MIC by two-fold serial agar dilution (NCCLS): fluoroquinolone sensitive strains (Table 17)
Format: cell-based

SMILES | MIC, P. aeruginosa 27853
COc1c(N2CCC(N)C(C)(C)C2)c(F)cc2c(=O)c(C(=O)O)cn(C3CC3)c12 (single isomer, unassigned; (+)) [Compound 19, (+)-1-Cyclopropyl-6-fluoro-1,4-dihydro-8-mehtoxy-7-(4-amino-3,3-dimethyl-1-piperidinyl)-4-oxo-quinoline-3-carboxylic acid] | 6.25 µg/mL (≈ 15.5 µM)
COc1c(N2CCC(N)C(C)(C)C2)c(F)cc2c(=O)c(C(=O)O)cn(C3CC3)c12 (single isomer, unassigned; (-)) [Compound 20, (−)-1-Cyclopropyl-6-fluoro-1,4-dihydro-8-mehtoxy-7-(4-amino-3,3-dimethyl-1-piperidinyl)-4-oxo-quinoline-3-carboxylic acid] | 6.25 µg/mL (≈ 15.5 µM)
COc1c(N2CCC(N)C(C)(C)C2)c(F)cc2c(=O)c(C(=O)O)cn(C3CC3)c12 (racemic) [Compound 18, (±)-1-Cyclopropyl-6-fluoro-1,4-dihydro-8-mehtoxy-7-(4-amino-3,3-dimethyl-1-piperidinyl)-4-oxo-quinoline-3-carboxylic acid] | 6.25 µg/mL (≈ 15.5 µM)
